Biological target: Glucocorticoid Receptor (GR) (Homo sapiens, UniProt P04150)
Test: GR Florescence Polarization Assay (PolarScreen Glucocorticoid Receptor Competitor Assay, Red)
Conditions: read-out: GR binding; Fluorescense polarization binding ranges; competition with fluorescent glucocorticoid, incubated overnight at 4° C.
Procedure: GR Florescence Polarization Assay Florescence polarization assays were carried out using the PolarScreen™ Glucocorticoid Receptor Competitor Assay, Red from Invitrogen (P2893). The assay buffer was prepared according to the manufacturer's protocol and used to dilute the fluorescent glucocorticoid and GR. Compounds were prepared and serial diluted 1:4 in DMSO. Compound, fluorescent glucocorticoid and GR were added in a final volume of 20 μL and incubated overnight at 4° C. Fluorescent polarization was measured on the Perkinelmer Envision®.

Protein sequences, listed by entry. Tags and fused reporters are not part of them.
UniProt P04150, whole entry: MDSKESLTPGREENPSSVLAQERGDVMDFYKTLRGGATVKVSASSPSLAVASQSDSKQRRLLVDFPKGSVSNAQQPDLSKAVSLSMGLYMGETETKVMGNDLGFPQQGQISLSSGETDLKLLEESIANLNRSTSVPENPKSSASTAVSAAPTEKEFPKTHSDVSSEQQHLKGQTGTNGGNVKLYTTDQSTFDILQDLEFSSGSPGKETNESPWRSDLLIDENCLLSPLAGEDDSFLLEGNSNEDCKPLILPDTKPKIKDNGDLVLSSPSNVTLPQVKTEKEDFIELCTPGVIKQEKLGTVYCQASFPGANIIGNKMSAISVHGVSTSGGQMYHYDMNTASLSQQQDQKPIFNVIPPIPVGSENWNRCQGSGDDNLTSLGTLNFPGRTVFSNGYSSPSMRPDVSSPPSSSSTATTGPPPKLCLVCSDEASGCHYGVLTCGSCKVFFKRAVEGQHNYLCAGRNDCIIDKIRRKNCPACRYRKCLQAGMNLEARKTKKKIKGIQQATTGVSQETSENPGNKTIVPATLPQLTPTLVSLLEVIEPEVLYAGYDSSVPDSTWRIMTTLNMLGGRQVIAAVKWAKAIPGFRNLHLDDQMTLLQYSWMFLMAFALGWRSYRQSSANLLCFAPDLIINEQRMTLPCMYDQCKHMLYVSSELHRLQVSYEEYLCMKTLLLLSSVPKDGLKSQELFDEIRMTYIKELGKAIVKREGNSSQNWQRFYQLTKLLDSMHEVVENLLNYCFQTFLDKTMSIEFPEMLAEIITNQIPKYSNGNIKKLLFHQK

| Compound | IC50 [nM] |
| --- | --- |
| CC[C@@]12CC[C@](O)(CC3CC3)C[C@@H]1CCOc1cc(C(=O)Nc3cccnc3C)ccc12 (relative stereo) | < 100 |
| CC[C@@]12CC[C@](O)(CC(C)C)C[C@@H]1CCOc1cc(C(=O)Nc3cccnc3C)ccc12 (relative stereo) | < 100 |
| CCOC[C@@]1(O)CC[C@@]2(CC)c3ccc(C(=O)Nc4cccnc4C)cc3CCC[C@H]2C1 (relative stereo) | < 100 |
| Cn1nccc1NC(=O)c1ccc2c(c1)CCC[C@@H]1C[C@@](O)(C(F)(F)F)CC[C@@]21Cc1ccccc1 | < 100 |
| CC[C@@]12CC[C@](O)(CC3CC3)C[C@@H]1CCOc1cc(C(=O)Nc3cccnc3C)ccc12 | < 100 |
| CC[C@]1(O)CC[C@]2(Cc3ccccc3)c3ccc(C(=O)Nc4cnc(C)nc4C)cc3CCC[C@@H]2C1 | 100 to 1000 |
| CCOC[C@]1(O)CC[C@]2(Cc3ccccc3)c3ccc(C(=O)Nc4cccnc4C)cc3CCC[C@@H]2C1 | 100 to 1000 |
| CC[C@@]1(O)CC[C@@]2(Cc3ccccc3)c3ccc(C(=O)Nc4cccnc4C)cc3C=CC[C@H]2C1 | < 100 |
| CCC[C@]1(O)CC[C@]2(CC(F)(F)F)c3ccc(C(=O)Nc4cccnc4C)cc3CCC[C@@H]2C1 | < 100 |
| CC[C@]12CC[C@@](O)(CC3CC3)C[C@H]1CCOc1cc(C(=O)Nc3cccnc3C)ccc12 | < 100 |
| Cc1cnccc1NC(=O)c1ccc2c(c1)CCC[C@@H]1C[C@@](O)(C(F)(F)F)CC[C@@]21Cc1ccccc1 | < 100 |
| CC[C@@]12CC[C@](O)(CC(C)C)C[C@@H]1COCc1cc(C(=O)Nc3cccnc3C)ccc12 | < 100 |
| CC[C@]12CC[C@@](O)(CC(C)C)C[C@H]1CCOc1cc(C(=O)Nc3cccnc3C)ccc12 | 100 to 1000 |
| CC[C@@]12CC[C@](O)(CC(C)C)C[C@@H]1CCOc1cc(C(=O)Nc3cccnc3C)ccc12 | < 100 |
| CCC[C@@]1(O)CC[C@@]2(CC(F)(F)F)c3ccc(C(=O)Nc4cccnc4C)cc3CCC[C@H]2C1 (racemic) [Example 52] | < 100 |
| Cn1nccc1NC(=O)c1ccc2c(c1)CCC[C@H]1C[C@](O)(C(F)(F)F)CC[C@]21Cc1ccccc1 | 100 to 1000 |
| CC[C@]1(O)CC[C@]2(Cc3ccccc3)c3ccc(C(=O)Nc4cccnc4C)cc3C=CC[C@@H]2C1 | 100 to 1000 |

Source: US20120238549A1, “Nuclear Hormone Receptor Modulators” (ABBOTT LABORATORIES, priority 2011, published 2012)
